Test results from patent publication US20250002463A1, “NEW SALT FORMS OF AMILORIDE AND ITS DERIVATIVES FOR PHARMACEUTICAL USE” (PSOMRI Holding AB, priority 2021, published 2025).

Experiment: Kinetic and thermodynamic solubility in water at 37° C. (1 h and 18 h, UPLC)
Conditions: 30 mg/ml suspension
With NC(=NCc1ccccc1)NC(=O)c1nc(Cl)c(N)nc1N.O=C(O)C(F)(F)F [TFA2] the “pH after 18 h” value was 6.1.

Experiment: Aqueous solubility of salts, Example 1 (aliquot addition; HPLC after 24 h at RT; pH of solutions/mother liquors)
Conditions: pH of aqueous solutions/mother liquors of the solubility test
Protocol: The aqueous solubility of the salts was estimated qualitatively by the solvent aliquot addition method. Aliquots of water up to 500-600 μL were added to approximately 5 mg of salt. The solubility of the free base was also estimated.
The suspensions were let equilibrating at room temperature for 24 h. Afterwards, solids were separated from the liquid phases. The liquid phases were filtered and analyzed by HPLC to determine the solubility. The pH of solutions/mother liquors was also measured.
Suspensions of the two salts were prepared in water with a concentration of 9-10 mg/mL. The mixtures were let equilibrating at RT for 24 h. Afterwards, solids were separated from the liquid phases. The liquid phases were filtered and analyzed by HPLC to determine the solubility. The pH of mother liquors was also measured.
With CC(=O)O.NC(=NC(=O)c1nc(Cl)c(N)nc1N)NCc1ccccc1 [ACA1] the pH was 6.4.
In the case of CC(=O)O.NC(=NC(=O)c1nc(Cl)c(N)nc1N)NCc1ccccc1 [ACA2], the pH is reported as 6.6.
Compound N=C(NCc1ccccc1)NC(=O)c1nc(Cl)c(N)nc1N.O=C(O)c1ccccc1 [BNZ1] has a pH of 7.5.
N=C(NCc1ccccc1)NC(=O)c1nc(Cl)c(N)nc1N.O=C(O)c1ccccc1 [BNZ2] showed a pH of 7.2.
Work on NC(=NC(=O)c1nc(Cl)c(N)nc1N)NCc1ccccc1.O=C(O)c1ccccc1 [BNZ3] yielded a pH of 4.5.
For Cl.N/C(=N\C(=O)c1nc(Cl)c(N)nc1N)NCc1ccccc1 [Benzamil HCl SM1, reference compound], the pH was 6.6.
For NC(=NCc1ccccc1)NC(=O)c1nc(Cl)c(N)nc1N [Benzamil free base, 3,5-diamino-N—(N′-benzylcarbamimidoyl)-6-chloropyrazine-2-carboxamide], the pH was 8.1.
Compound CC(O)C(=O)O.NC(=NCc1ccccc1)NC(=O)c1nc(Cl)c(N)nc1N [LAC1] has a pH of 6.1.
NC(=NC(=O)c1nc(Cl)c(N)nc1N)NCc1ccccc1.O=[N+]([O-])O [NIT5] gave a pH of 5.7.
For NC(=NC(=O)c1nc(Cl)c(N)nc1N)NCc1ccccc1.O=P(O)(O)O [PHO2], the pH was 4.5.
NC(=NC(=O)c1nc(Cl)c(N)nc1N)NCc1ccccc1.NC(=NC(=O)c1nc(Cl)c(N)nc1N)NCc1ccccc1.O=S(=O)(O)O [SUL1] showed a pH of 6.6.
N=C(NCc1ccccc1)NC(=O)c1nc(Cl)c(N)nc1N.O=C(O)C(O)C(O)C(=O)O [TAR1] showed a pH of 3.2.
Work on Cc1ccc(S(=O)(=O)O)cc1.NC(=NC(=O)c1nc(Cl)c(N)nc1N)NCc1ccccc1 [TOS1] yielded a pH of 7.4.
